Values of other authors as cited in patent US20140248635A1, “ALPHA-TUBULIN […]” (University of Georgia Research Foundation, Inc., priority 2010, published 2014).

Target: T1, HDAC6 (Homo sapiens, UniProt Q9UBN7)
T1 sequence (Q9UBN7 1-1215): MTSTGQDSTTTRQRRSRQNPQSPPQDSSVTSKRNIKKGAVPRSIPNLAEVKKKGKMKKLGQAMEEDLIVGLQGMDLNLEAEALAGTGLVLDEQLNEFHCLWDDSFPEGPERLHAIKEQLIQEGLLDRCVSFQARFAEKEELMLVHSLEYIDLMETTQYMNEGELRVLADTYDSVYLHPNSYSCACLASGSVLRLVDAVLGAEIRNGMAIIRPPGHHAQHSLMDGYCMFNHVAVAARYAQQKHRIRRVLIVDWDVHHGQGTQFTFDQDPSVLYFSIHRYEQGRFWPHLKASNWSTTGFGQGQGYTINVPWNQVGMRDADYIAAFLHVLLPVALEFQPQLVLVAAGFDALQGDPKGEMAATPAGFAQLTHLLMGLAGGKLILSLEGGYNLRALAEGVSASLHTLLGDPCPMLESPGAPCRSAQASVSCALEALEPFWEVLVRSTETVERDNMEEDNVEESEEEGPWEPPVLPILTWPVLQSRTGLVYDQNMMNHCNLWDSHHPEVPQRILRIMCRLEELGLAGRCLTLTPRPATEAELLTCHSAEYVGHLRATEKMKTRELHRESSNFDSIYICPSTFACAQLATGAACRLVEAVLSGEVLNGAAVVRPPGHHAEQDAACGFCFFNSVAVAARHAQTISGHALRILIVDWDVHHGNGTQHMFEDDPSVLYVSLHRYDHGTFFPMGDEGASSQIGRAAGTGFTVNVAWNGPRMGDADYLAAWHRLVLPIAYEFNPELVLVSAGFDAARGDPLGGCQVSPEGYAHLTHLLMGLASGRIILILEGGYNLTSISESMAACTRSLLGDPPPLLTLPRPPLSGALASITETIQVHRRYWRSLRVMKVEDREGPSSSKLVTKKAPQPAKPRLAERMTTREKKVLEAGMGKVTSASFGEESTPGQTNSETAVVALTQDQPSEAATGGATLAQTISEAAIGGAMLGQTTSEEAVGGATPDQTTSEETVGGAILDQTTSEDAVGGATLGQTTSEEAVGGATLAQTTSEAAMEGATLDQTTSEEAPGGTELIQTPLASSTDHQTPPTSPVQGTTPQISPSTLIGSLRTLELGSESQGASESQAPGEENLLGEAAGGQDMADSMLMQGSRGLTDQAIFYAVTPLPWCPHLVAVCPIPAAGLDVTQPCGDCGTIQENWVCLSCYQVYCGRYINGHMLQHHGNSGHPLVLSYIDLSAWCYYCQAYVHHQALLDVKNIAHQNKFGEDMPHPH
Settings: cited from earlier work

Question: With CC(/C=C/C(=O)NO)=C\[C@@H](C)C(=O)c1ccc(N(C)C)cc1 [trichostatin A] as the compound, how does the “inhibition of HDAC6” value read?
Answer: a broad inhibitor of deacetylases
